Selectivity ratio data for one compound are collected here from ChEMBL document CHEMBL1136236, “Design and parallel synthesis of piperidine libraries targeting the nociceptin (N/OFQ) receptor” (Bioorg Med Chem Lett, 2003).

The chains behind the UniProt entries cited, without tags or fusion partners.
UniProt P35372, whole entry, looked up: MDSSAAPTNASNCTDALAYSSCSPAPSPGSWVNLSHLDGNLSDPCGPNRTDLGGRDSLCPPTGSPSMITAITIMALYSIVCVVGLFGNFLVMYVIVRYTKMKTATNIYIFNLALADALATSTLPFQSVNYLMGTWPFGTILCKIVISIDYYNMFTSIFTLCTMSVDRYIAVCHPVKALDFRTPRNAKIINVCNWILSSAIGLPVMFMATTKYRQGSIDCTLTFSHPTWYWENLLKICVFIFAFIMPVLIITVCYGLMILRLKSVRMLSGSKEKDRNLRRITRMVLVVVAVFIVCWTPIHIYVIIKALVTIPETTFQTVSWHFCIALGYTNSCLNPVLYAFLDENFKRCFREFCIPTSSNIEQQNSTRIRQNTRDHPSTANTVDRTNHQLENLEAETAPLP

In the assay the target is Mu-type opioid receptor (Homo sapiens, UniProt P35372). The assay can be described thus: Selectivity ratio of Opioid receptor mu 1 binding to Orphanin FQ receptor.

With `CC(C)C1CCC(N2CCC(O)(c3cccc(C(F)(F)F)c3)CC2)CC1` (stereo unspecified), the Selectivity ratio worked out at 3.
